This note sets out measurements from paper PMC9260860 (Biochemistry, 2021).

The test system of this data set is 5′-methylthioadenosine. Put plainly: purified protein, by the assay type. The following applies: other: deamination by HpAFLDA, 50 mM HEPES pH 7.0, 25 °C.

As to “HpAFLDA (jhp0252) (Helicobacter pylori J99)”, the Michaelis-Menten constant (Km) came out at 100 ± 10 µM, the kcat stood at 1.24 s⁻¹ and the kcat/Km turned out to be 13000 M⁻¹ s⁻¹.

As usually defined, the Km is the substrate concentration at which the rate is half of its maximum. The term kcat denotes the number of substrate molecules converted per active site and unit of time at saturation. A word on the kcat/Km: it is the second-order rate constant that governs catalysis at low substrate concentration.
